Measurements from patent US8822535B2 (priority 2005, dated 2014).

Test system: mice
Experiment: Compound screen, tertiary: survival in lethal hypoxia (4% O2)
Format: in vivo, mouse (C57BL/6)
Settings: 4% O2 after infusion until subcutaneous temperature 33° C.; test ended at 60 minutes; control typically died within 6-15 minutes

cysteamine-5-phosphate sodium salt
survival in lethal hypoxia: 31 min
